Results: US12617773B2, “Azetidin-3-ylmethanol derivatives as CCR6 receptor modulators” (Idorsia Pharmaceuticals Ltd, priority 2020, dated 2026)

Protein sequences, listed by entry. Tags and fused reporters are not part of them.
UniProt P51684, whole entry: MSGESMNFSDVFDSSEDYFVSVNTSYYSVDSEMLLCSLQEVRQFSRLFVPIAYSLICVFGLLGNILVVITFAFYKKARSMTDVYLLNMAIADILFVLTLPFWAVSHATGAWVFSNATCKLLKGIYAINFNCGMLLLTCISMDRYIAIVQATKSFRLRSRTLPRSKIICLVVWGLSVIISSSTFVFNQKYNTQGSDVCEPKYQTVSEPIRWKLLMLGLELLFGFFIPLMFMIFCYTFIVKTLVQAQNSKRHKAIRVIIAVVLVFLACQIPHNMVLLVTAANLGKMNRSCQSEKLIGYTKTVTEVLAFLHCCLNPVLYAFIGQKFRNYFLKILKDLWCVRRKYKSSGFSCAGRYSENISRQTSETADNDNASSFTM

Molecular target: human CCR6 (Homo sapiens, UniProt P51684)
Test: FLIPR assay (inhibition of CCL20-induced calcium signal)
Format: cell-based
Details: read-out: FLIPR IC50; HEK-293 cells expressing human CCR6; mean values where determined several times

IC50	Structure (SMILES)
23.4 nM	CC(C)c1ccc([C@](O)(c2cncc(C3CCN(c4ccccc4)CC3)c2)C2(C)CN(C)C2)cc1
50.5 nM	CC(C)c1ccc([C@](O)(c2cncc(N3CC(c4ccnc(C(C)C)n4)CC3=O)c2)C2(C)CN(C)C2)cc1 (stereo partly shown)
15.2 nM	Cc1ccc(S(=O)(=O)N2CCC(c3cncc([C@@](O)(c4ccc(C(C)C)cc4)C4(C)CN(C)C4)c3)CC2)cc1
222 nM	CC(C)c1ccc([C@](O)(c2cncc(N3CC(c4cnn(C)n4)CC3=O)c2)C2(C)CN(C)C2)cc1 (stereo partly shown)
